This assay addresses recombinant human HDAC2 (Homo sapiens, UniProt Q92769). Nature of the assay: HDAC2 fluorogenic inhibition assay.

Sequences of proteins named here, by UniProt entry; tags and fusion partners are left off.
UniProt Q92769, whole entry: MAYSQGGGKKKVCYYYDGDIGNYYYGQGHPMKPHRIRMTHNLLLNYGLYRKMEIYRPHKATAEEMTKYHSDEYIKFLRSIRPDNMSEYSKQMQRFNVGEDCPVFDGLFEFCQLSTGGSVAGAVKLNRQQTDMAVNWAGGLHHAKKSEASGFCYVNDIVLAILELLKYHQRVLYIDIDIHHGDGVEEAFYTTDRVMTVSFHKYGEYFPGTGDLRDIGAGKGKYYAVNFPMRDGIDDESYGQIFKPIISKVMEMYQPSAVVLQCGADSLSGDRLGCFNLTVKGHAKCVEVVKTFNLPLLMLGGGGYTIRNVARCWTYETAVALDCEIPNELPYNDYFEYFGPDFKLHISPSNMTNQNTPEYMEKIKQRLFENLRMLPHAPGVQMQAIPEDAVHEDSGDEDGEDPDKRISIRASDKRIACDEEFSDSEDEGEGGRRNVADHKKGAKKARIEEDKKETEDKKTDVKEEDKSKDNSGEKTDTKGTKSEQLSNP

Take `[N-]=[N+]=NCc1cc(COC(=O)NCc2ccc(C(=O)Nc3cc(-c4ccccc4)ccc3N)cc2)cc(N=[N+]=[N-])c1` [2b]: the 50% inhibitory concentration (IC50) amounted to 0.3 µM.

For `[N-]=[N+]=NCc1cc(COC(=O)NCc2ccc(C(=O)Nc3cc(-c4cccs4)ccc3N)cc2)cc(N=[N+]=[N-])c1` [2c], the IC50 was 0.35 µM.

These data come from PMC3401313 (Bioorganic & medicinal chemistry letters, 2012).
